Experimental data: patent publication US20260240847A1, “COMPOUNDS WITH ANTI-TUMOR ACTIVITY AGAINST CANCER CELLS BEARING TYROSINE KINASE INHIBITOR RESISTANT EGFR MUTATIONS” (BOARD OF REGENTS, THE UNIVERSITY OF TEXAS SYSTEM, priority 2019, published 2026)

Sequences of proteins named here, by UniProt entry; tags and fusion partners are left off. A line that says so, or that is headed by a name, gives the form on record, which may keep a tag or linker. Residues count along the entry.
UniProt P00533, 25-1210 T725M: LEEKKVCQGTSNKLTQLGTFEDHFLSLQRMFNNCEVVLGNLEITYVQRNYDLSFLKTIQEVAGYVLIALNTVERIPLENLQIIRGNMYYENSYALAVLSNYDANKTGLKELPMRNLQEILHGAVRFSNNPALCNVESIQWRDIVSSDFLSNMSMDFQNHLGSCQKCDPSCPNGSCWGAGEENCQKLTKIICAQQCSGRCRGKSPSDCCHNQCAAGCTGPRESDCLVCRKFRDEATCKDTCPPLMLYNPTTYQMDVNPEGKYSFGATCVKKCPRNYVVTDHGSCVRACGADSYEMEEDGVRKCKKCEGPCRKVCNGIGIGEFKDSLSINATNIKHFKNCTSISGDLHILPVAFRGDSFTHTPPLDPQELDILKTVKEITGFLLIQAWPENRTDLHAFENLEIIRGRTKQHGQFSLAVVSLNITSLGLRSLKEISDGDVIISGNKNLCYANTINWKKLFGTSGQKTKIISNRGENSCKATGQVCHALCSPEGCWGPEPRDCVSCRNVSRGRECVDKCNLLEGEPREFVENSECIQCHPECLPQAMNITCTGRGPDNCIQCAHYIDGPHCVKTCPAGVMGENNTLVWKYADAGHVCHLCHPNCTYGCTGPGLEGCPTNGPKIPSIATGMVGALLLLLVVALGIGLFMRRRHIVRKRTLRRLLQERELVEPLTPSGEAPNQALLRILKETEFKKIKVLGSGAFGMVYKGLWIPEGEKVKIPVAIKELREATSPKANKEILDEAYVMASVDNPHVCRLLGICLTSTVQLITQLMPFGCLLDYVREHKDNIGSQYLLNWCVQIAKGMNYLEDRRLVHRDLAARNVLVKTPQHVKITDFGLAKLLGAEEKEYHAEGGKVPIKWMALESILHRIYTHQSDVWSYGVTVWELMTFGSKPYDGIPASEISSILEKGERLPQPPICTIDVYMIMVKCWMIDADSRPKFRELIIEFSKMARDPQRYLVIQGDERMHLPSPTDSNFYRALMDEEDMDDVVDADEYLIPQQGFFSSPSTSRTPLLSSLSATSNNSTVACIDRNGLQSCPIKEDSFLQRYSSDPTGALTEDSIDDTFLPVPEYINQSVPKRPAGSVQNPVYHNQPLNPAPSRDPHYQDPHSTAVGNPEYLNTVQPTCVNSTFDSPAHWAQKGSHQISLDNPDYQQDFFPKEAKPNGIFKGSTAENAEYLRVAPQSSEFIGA
UniProt P00533, 25-1210 L833F: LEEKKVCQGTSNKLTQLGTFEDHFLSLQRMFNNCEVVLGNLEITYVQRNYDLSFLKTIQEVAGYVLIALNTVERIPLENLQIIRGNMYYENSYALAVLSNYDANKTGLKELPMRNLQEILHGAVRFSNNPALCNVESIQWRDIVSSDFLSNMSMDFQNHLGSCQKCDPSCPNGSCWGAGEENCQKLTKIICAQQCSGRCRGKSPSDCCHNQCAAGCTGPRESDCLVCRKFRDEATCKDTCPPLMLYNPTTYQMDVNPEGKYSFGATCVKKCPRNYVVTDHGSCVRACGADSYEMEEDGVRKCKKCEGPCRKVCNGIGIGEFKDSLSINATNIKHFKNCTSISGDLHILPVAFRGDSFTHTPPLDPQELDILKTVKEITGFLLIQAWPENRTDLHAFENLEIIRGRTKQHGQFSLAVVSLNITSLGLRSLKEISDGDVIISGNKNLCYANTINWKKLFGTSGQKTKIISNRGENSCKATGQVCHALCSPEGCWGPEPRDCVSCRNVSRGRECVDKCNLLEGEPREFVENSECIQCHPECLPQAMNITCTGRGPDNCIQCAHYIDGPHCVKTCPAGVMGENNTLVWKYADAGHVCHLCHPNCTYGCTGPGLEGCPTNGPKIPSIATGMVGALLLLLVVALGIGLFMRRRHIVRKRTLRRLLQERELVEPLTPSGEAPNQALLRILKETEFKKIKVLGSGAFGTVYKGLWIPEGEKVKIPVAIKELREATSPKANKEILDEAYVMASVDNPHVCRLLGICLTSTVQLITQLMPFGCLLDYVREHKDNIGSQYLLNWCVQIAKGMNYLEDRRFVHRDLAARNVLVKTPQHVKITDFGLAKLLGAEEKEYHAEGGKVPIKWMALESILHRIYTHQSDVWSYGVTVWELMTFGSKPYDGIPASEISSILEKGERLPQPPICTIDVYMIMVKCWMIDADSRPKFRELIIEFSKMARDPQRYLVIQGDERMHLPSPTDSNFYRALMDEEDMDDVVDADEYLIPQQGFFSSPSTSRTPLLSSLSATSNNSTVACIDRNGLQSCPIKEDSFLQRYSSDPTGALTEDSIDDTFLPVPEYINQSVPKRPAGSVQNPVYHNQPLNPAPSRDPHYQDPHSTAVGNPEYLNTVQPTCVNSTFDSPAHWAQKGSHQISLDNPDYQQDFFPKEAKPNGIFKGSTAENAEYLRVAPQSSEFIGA
UniProt P00533, 25-1210 L792H/L858R: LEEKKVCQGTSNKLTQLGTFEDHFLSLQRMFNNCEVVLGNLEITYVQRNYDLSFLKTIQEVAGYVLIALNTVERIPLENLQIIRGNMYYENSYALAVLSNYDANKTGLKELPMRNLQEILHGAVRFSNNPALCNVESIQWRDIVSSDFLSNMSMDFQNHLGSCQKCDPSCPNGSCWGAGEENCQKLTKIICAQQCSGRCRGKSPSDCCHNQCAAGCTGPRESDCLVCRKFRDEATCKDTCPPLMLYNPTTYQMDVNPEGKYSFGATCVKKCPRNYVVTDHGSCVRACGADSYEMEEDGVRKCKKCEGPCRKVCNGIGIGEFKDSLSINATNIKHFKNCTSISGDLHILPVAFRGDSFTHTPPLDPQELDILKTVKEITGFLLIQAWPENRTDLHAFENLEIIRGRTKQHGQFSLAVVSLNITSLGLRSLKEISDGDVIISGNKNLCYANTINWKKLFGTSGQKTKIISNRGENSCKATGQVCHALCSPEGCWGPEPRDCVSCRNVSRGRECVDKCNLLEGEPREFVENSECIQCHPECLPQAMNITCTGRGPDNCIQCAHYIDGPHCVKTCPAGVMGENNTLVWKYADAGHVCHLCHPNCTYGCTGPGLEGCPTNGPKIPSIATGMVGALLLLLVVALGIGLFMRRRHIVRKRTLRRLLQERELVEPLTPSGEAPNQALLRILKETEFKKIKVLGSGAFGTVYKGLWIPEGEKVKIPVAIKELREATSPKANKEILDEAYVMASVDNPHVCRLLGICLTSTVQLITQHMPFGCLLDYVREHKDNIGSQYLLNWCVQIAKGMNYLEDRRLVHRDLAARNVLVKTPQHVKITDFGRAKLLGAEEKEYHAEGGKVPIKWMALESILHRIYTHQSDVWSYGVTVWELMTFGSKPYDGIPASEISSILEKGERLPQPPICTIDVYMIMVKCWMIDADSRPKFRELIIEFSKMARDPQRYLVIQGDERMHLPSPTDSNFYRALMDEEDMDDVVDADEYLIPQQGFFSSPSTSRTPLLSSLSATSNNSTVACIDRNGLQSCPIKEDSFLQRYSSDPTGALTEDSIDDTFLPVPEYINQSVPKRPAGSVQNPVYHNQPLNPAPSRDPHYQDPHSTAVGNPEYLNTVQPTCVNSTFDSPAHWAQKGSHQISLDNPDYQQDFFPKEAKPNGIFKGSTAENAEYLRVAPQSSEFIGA
UniProt P00533, with tags, fused parts or gaps DUP740-745: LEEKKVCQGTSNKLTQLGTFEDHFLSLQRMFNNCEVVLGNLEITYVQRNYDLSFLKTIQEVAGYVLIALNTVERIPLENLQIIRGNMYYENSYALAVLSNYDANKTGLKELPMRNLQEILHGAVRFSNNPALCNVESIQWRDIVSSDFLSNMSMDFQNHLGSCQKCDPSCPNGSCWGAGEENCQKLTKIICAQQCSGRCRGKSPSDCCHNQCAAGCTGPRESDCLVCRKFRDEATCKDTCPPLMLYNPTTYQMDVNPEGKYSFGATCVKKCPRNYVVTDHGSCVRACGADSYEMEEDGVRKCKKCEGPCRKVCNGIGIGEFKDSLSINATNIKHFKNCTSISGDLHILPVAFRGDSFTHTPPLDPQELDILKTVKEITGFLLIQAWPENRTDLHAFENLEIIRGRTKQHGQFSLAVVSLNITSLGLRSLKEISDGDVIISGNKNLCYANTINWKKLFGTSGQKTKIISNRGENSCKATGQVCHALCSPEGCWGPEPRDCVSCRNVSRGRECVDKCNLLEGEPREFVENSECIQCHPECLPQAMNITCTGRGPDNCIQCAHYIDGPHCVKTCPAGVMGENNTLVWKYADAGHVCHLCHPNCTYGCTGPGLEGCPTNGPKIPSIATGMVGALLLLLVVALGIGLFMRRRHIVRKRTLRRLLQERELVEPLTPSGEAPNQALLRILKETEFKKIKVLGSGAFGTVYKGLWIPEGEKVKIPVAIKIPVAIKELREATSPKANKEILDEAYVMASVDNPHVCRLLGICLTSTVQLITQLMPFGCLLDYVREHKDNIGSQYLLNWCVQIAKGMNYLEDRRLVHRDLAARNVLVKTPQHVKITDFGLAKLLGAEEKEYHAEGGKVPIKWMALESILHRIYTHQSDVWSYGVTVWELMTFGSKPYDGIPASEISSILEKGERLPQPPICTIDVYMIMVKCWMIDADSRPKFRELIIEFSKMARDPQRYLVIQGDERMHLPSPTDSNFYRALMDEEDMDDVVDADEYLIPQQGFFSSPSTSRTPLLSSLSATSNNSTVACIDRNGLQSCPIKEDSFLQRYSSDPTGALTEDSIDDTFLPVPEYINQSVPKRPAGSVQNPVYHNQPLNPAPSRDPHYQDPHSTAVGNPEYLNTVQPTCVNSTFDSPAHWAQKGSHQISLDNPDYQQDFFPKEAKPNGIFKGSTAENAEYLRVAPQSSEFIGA
UniProt P00533, with tags, fused parts or gaps INS770NPG: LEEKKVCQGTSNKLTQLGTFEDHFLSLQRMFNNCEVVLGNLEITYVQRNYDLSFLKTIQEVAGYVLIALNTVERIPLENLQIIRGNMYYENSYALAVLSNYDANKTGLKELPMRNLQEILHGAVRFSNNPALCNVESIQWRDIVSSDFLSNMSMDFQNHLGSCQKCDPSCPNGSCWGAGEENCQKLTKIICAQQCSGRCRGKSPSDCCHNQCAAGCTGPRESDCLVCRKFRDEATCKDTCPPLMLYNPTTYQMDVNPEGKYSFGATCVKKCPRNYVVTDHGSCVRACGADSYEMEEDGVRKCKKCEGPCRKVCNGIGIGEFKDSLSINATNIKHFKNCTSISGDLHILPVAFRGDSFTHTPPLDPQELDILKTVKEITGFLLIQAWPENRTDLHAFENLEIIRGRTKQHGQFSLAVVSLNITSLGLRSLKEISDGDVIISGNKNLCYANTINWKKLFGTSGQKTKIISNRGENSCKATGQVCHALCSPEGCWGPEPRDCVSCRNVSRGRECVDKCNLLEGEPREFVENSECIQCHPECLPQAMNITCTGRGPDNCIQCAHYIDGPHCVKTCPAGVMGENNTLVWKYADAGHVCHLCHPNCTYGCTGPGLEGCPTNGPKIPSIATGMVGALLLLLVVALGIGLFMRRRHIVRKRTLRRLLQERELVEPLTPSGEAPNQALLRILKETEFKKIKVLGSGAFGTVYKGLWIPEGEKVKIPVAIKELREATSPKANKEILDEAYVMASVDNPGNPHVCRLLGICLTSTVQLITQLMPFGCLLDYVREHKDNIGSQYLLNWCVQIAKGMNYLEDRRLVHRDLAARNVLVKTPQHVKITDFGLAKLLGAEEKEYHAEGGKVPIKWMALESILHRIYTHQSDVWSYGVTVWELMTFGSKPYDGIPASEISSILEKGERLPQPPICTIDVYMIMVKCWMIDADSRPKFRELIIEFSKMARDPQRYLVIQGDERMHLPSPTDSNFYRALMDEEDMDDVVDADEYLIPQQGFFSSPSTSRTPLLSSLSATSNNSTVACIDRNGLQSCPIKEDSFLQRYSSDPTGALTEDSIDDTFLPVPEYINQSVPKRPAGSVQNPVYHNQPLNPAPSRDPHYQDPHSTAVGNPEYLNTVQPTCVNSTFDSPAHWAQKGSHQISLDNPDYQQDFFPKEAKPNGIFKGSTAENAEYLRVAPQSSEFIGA

Experiments:
Experiment in all cases: Ba/F3 cell viability, Cell Titer Glo
[1] = target: EGFR T725M (Homo sapiens, UniProt P00533, T725M); settings: read-out: IC50 Values; Ba/F3 cells expressing EGFR T725M, 72 hours
[2] = target: EGFR L833F (Homo sapiens, UniProt P00533, L833F); settings: read-out: IC50 Values; Ba/F3 cells expressing EGFR L833F, 72 hours
[3] = target: EGFR L858R/L792H (Homo sapiens, UniProt P00533, L792H/L858R); settings: read-out: IC50 Values; Ba/F3 cells expressing EGFR L858R/L792H, 72 hours
[4] = target: EGFR l740duplPVAK (Homo sapiens, UniProt P00533, DUP740-745); settings: read-out: IC50 Values; Ba/F3 cells expressing EGFR l740duplPVAK, 72 hours
[5] = target: EGFR D770insNPG (Homo sapiens, UniProt P00533, INS770NPG); settings: read-out: IC50 Values; Ba/F3 cells expressing EGFR D770insNPG, 72 hours

Cc1cc(C(=O)Nc2nc3cccc(Cl)c3n2[C@@H]2CCCCN(C(=O)/C=C/CN(C)C)C2)ccn1
IC50 [1]: 58.9 nM
IC50 [2]: 253 nM
IC50 [3]: 74.4 nM
IC50 [4]: 75.4 nM
IC50 [5]: 686 nM
